The record followed here is paper PMC5620620, “Comparison of In Vitro Assays in Selecting Radiotracers for In Vivo P-Glycoprotein PET Imaging” (Pharmaceuticals, 2017).

Sequences of proteins named here, by UniProt entry; tags and fusion partners are left off.
UniProt P08183, whole entry: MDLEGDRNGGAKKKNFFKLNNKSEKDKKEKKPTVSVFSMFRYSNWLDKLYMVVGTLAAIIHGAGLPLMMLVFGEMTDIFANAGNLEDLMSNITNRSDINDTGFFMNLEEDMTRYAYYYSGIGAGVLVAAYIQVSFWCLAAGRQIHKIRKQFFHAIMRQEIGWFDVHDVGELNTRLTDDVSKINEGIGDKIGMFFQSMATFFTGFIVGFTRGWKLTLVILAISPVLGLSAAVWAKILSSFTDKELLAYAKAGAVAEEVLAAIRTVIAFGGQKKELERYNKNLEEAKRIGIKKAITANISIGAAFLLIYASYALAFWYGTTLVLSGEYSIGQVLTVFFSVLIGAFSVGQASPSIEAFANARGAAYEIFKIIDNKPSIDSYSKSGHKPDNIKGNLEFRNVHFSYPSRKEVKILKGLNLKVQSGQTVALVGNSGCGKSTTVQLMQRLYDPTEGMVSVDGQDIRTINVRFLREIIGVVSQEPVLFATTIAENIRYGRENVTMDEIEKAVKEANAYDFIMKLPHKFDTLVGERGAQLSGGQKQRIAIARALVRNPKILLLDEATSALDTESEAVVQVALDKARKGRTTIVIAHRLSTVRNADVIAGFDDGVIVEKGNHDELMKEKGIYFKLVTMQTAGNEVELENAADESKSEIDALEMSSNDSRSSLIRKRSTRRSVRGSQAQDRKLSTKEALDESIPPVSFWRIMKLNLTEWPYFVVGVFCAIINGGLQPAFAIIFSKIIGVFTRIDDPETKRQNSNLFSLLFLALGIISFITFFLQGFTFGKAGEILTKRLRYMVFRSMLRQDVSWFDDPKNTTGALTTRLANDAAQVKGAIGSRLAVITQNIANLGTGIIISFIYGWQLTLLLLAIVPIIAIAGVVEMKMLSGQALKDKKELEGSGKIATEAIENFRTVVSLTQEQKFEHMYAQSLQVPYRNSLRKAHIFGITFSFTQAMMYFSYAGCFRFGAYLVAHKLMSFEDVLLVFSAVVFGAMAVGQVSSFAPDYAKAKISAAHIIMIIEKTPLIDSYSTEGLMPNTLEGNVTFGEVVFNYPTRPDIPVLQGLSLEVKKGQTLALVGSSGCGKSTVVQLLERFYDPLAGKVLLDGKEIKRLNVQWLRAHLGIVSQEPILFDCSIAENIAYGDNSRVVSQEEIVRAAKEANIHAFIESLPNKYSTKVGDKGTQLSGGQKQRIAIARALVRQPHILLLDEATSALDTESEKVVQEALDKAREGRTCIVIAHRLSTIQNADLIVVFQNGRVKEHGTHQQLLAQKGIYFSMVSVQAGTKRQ

In the data set the target is P-gp (Homo sapiens, UniProt P08183). The experiment in a line: Bidirectional transport of tritiated compounds in MDCKII-MDR1 cells. The note with it: with ketoconazole 25 µM or tariquidar 10 µM, test compound 0.01 µM, [3H]digoxin 0.05 µM.

Molecules are shown by their SMILES.

As for `C[C@H]1O[C@@H](O[C@H]2[C@@H](O)C[C@H](O[C@H]3[C@@H](O)C[C@H](O[C@H]4CC[C@@]5(C)[C@H](CC[C@@H]6[C@@H]5C[C@@H](O)[C@]5(C)[C@@H](C7=CC(=O)OC7)CC[C@]65O)C4)O[C@@H]3C)O[C@@H]2C)C[C@H](O)[C@@H]1O` [[^3H]Digoxin, digoxin], the “A → B and B → A transport values due to inhibition” value is given as under 3.
